Experiments:
Albumin [1] = target: T1, Albumin (Homo sapiens, UniProt P02768); assay: Binding parameter of the carboxylate form to human serum albumin; n value
Summary of the method: (§1)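 Fluorescence lifetime titration in PBS, pH 7.40 ± 0.05, 37 °C. Total drug 20 μM, lactone or carboxylate form (carboxylate stock made by mixing DMSO stock 1:1 with PBS pH 10), titrated with varying HSA. Phase-shift lifetimes at 30 MHz modulation. Free fraction (τ − τB)/(τF − τB) plotted against log amino-acid residue concentration. K and n obtained by nonlinear least-squares fit to K = [Db]/([Df][aa]^n).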

By UniProt entry, the sequences of proteins in these tests, tags left out.
UniProt P02768, whole entry: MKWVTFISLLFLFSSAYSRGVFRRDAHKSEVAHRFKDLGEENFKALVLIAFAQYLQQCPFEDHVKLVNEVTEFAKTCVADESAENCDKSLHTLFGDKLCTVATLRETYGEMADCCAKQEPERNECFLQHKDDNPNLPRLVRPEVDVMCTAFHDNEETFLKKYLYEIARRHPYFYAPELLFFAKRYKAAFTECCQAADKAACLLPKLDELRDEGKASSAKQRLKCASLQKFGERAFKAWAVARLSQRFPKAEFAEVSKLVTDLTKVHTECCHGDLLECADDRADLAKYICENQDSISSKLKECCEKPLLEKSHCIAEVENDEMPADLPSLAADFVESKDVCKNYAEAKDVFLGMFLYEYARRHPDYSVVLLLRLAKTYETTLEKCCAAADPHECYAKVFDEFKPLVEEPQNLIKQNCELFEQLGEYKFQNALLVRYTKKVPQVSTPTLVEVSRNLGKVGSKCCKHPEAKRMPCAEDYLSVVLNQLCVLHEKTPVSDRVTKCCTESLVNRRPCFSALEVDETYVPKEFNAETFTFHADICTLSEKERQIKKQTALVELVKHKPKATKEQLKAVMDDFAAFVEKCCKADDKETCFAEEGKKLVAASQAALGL

Albumin [2] = target: T1, Albumin; assay: Association constant for the binding of the lactone form to human serum albumin;(M aa)e-1; summary of the method: as §1
Albumin [3] = target: T1, Albumin; assay: Binding parameter of the lactone form to human serum albumin; n value; summary of the method: as §1
Albumin [4] = target: T1, Albumin; assay: Association constant for the binding of the carboxylate form to human serum albumin;(M aa)e-1; summary of the method: as §1

- Activity (Albumin [1]): 1.4
- K (Albumin [2]): 640 1/Maa
- Activity (Albumin [3]): 1.7
- K (Albumin [4]): 150 1/Maa
Structure (SMILES): CCc1c2c(nc3ccc(O)cc13)-c1cc3c(c(=O)n1C2)COC(=O)[C@]3(O)CC [7-ETHYL-10-HYDROXYCAMPTOTHECIN]

From ChEMBL document CHEMBL1127496, “The structural basis of camptothecin interactions with human serum albumin: impact on drug stability” (J Med Chem, 1994)
